From patent US9434994B2, “Methods for prediction of clinical outcome to epidermal growth factor receptor inhibitors by non-small cell lung cancer patients” (The Regents of the University of Colorado, a body corporate, priority 2004, dated 2016) come the findings set out here.

Bounds are passed on as bounds.

Type in all cases: cell-based, human
One assay deals with H358. In words: Cetuximab sensitivity of NSCLC cell lines (IC50). The settings on record: H358, sensitive line. The source says:
(§1) Conversely, among the 20 NSCLC lines which were resistant to Cetuximab, none had EGFR or HER2 gene amplification and only 6 had high polysomy for EGFR and/or HER2.

The next assay relates to H827. In words: Cetuximab sensitivity of NSCLC cell lines (IC50). The settings on record: H827, sensitive line.
Description: as §1

The next assay deals with H3255. Kind of assay: Cetuximab sensitivity of NSCLC cell lines (IC50). The note with it: H3255, sensitive line.
Description: as §1

The test system of a further assay is H2279. Kind of assay: Cetuximab sensitivity of NSCLC cell lines (IC50). The note with it: H2279, sensitive line.
Description: as §1

For a further assay, the system named is Calu 3. Kind of assay: Cetuximab sensitivity of NSCLC cell lines (IC50). The note with it: Calu 3, sensitive line.
Description: as §1

The subject of assay [1] is 20 NSCLC lines resistant to Cetuximab. Kind of assay: Cetuximab sensitivity of NSCLC cell lines (IC50), resistant lines. The settings on record: 20 resistant NSCLC lines.
Description: as §1

Regarding Cetuximab, the IC50 – broadly, the point on the concentration scale where inhibition reaches its midpoint – was below 1000 nM in the assay on H358; below 1000 nM with H827; below 1000 nM in the assay with H3255; below 1000 nM with H2279; below 1000 nM with Calu 3; above 1000 nM in assay [1].
